# AlphaSeq binding of Ab-14 heavy chain variants to a spike HR2 peptide

Target peptide (SARS-CoV-2 spike, HR2 region): PDVDLGDISGINAS

Parent: Ab-14, a human scFv built as VH, a 15-residue (Gly4Ser)3 linker, VL. Only the CDRs of the heavy chain vary.
VH: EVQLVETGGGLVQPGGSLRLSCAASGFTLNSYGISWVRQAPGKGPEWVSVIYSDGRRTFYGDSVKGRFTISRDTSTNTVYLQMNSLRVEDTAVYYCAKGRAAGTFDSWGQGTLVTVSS
VL: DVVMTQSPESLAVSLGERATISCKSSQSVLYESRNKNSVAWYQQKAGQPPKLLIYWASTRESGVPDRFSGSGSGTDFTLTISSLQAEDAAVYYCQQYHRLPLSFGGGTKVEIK

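Phage display of a naive human antibody library on the peptide gave the parent. These sequences belong to a second round, designed from the earlier measurements on random variants of the parent. Group labels follow the data file (Ctrl: baseline library sampled from a position-specific scoring matrix, with some repeated check sequences; Rand: our label for a block that the file lists under HC and that is probably the random mutants of the ten best first-round binders; GP: Gaussian process model; GPLM: also part of the Gaussian process libraries; HC: hill climbing; Gen: genetic algorithm; Gibbs: Gibbs sampling; a sequence that several methods proposed may carry one label only). In AlphaSeq, yeast of one mating type display the scFv and yeast of the other type display the target. The frequency of each diploid, read from paired DNA barcodes, reflects how well the two displayed proteins bind. Each replicate has its own calibration line, from reference interactions of the BCL2 family. Mating was done six times.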

Changes read parent residue, position, new residue, counted from the first residue of the VH shown.
Variants here have at most six changes.
Each Kd is an estimate from the mating assay, the geometric mean of the replicates in which the pair was seen; lower is stronger.
An entry "nd" has no value in the source: the pair was not observed among the diploids in any replicate. This suggests poor binding but is not conclusive.
Values of this round are not directly comparable with the first-round values of the same sequences.
As a blank, each scFv also met three strains without target: over all heavy chain designs, 1% of these pairings were detected, typically at 120 nM and seldom below 7.0 nM.
The authors' rule: three or more of the six replicates give a measured affinity, fewer mean a poor binder.
Of ten entries with the parent sequence, four were seen in most replicates (averages 2.2 nM to 240 nM), three in one and three in none, so single entries are noisy.

The variant R56I F105S D106K S107K [Ctrl] showed nd (0 of 6 replicates). With T28D G103W D106I [GP_HC] the result was nd (0 of 6 replicates). The variant I34S R56E G61A [Ctrl] showed nd (0 of 6 replicates). The variant T28C R56V G61R R100T A101V [Ctrl] showed 1.2 nM (6 of 6 replicates). For R56Q G61I A101I [GP_HC], the assay gave nd (0 of 6 replicates). With T28H G61A R100N [GPLM_Gen] the result was 11 nM (6 of 6 replicates). The variant G26L T28D F59A [GP_Gen] showed 78 nM (5 of 6 replicates). For S31E G103W D106I [GP_HC], the assay gave 1.1 nM (3 of 6 replicates).

The variant G61S F105A [Ctrl] gave nd (0 of 6 replicates). For T28D R56K A101T S107T [GP_Gen], the assay gave 490 pM (6 of 6 replicates). The variant G61K R100Q A101T S107L [GP_Gen] gave 3.7 nM (6 of 6 replicates). For S31D S35A F59Q G61I D62F G103T [Rand], the assay gave nd (0 of 6 replicates). The variant T28D I34A F59P T104W D106N [Rand] showed nd (0 of 6 replicates). With T28E S53A R100W [GPLM_Gen] the result was 9.1 nM (6 of 6 replicates). With Y32F G61A A101G S107G [Ctrl] the result was nd (0 of 6 replicates). The variant T28D G103W [GPLM_HC] gave 800 nM (2 of 6 replicates).

The variant T28R S31E S107L [GP_HC] gave 6.0 nM (6 of 6 replicates). For T28D G61C A101V [GPLM_HC], the assay gave 3.6 nM (6 of 6 replicates). For T28S S63N A101V [GPLM_Gen], the assay gave 310 pM (3 of 6 replicates). The variant S63D R100E S107N [GP_Gen] gave 9.2 nM (3 of 6 replicates). The variant T28W S31D G61I A101E [GP_HC] showed 9.3 nM (6 of 6 replicates). The variant N30K S31E G103V S107M [GP_HC] gave nd (0 of 6 replicates). For G61S R100Q A102V S107T [GPLM_Gen], the assay gave nd (0 of 6 replicates). The variant T28S S31D A101T S107R [GPLM_Gen] showed 2.1 nM (6 of 6 replicates).

For T28S S31N S63Q A101T [GPLM_Gen], the assay gave 5.2 nM (6 of 6 replicates). The variant N30A V64F R100K A102I T104C D106I [Ctrl] showed nd (0 of 6 replicates). The variant S31E D106N [Ctrl] showed nd (0 of 6 replicates). For G61S A102G G103V [GPLM_HC], the assay gave nd (0 of 6 replicates). The variant T28D R56Q A101L [GP_Gibbs] showed 330 pM (6 of 6 replicates). The variant G99T R100N [Ctrl] showed 2.3 µM (3 of 6 replicates). For T28S G61V R100N A101T [GPLM_Gen], the assay gave 2.6 nM (6 of 6 replicates). The variant T28D G61V D106N S107M [GP_HC] gave nd (0 of 6 replicates).

With T28D R100K A101T S107R [GP_Gen] the result was 2.9 nM (6 of 6 replicates). For T28W S31D G61A S107T [GP_HC], the assay gave 29 nM (6 of 6 replicates). For S31D G61I A101E D106I [GP_HC], the assay gave nd (0 of 6 replicates). The variant R56M A101K A102D [Ctrl] gave nd (0 of 6 replicates). The variant S31D Y32T S35E F59V G61I [Rand] gave nd (0 of 6 replicates). The variant S31E Y52N R56N G99A G103V S107Q [Rand] gave nd (0 of 6 replicates). For T28S G61A A101M [GPLM_Gen], the assay gave 2.2 nM (6 of 6 replicates). With T28L S31D G61K A101T D106I [GP_HC] the result was nd (0 of 6 replicates).

The variant S31D G61Q A102G [Rand] showed 11 nM (3 of 6 replicates). The variant T28D R56Q G61A [GPLM_Gen] gave 3.0 nM (6 of 6 replicates). The variant S31E I34V G61F [Ctrl] showed nd (0 of 6 replicates). For T28S G61V S63D R100N S107A [GP_Gibbs], the assay gave 1.0 nM (6 of 6 replicates). For G61D V64A G99M R100Q A101L T104K [Rand], the assay gave nd (0 of 6 replicates). For T28S G61S R100W A101T [GPLM_Gen], the assay gave 1.1 nM (6 of 6 replicates). With T28E S31Q F59A G61Q [GP_HC] the result was 390 pM (6 of 6 replicates). For T58E R100M G103V [Ctrl], the assay gave nd (0 of 6 replicates).

Excerpt, the final 4 entries:

changes,group,apparent Kd,seen in
G61D V64A G99M R100Q A101L T104K,Rand,nd,0/6
T28S G61S R100W A101T,GPLM_Gen,1.1 nM,6/6
T28E S31Q F59A G61Q,GP_HC,390 pM,6/6
T58E R100M G103V,Ctrl,nd,0/6

The measurements come from Li et al. 2023 (doi:10.1038/s41467-023-39022-2) through the FLAb antibody collection.